Source: patent US10804000B2, “High efficiency continuous-flow production of radioisotopes” (priority 2016, dated 2020)

Experiment: Pre-irradiation solubility tests of lanthanide complexes in the water capture matrix (neutron activation analysis of washes)
Type: physicochemical
Settings: indicates solubility in capture matrix; for % Activity in wash 1: first pre-irradiation wash with 0.5 mL ultra-pure H2O, 153Sm at 103 keV, 166Ho at 81 keV; for % Activity in wash 2: second pre-irradiation wash with H2O
Method: The solubility of the lanthanide complexes in the water capture matrix was determined by mixing a few milligrams of the lanthanide-containing target solid thoroughly with 0.5 mL of ultra-pure H2O then separating the solution from the solid utilizing centrifugal filter tubes (EMD Millipore). A second wash of the solid was obtained using the same procedure. The solid and the washes were submitted for neutron activation analysis in order to determine the solubility of the lanthanide containing target in H2O.
Post irradiation, the samples were left to cool for a predetermined amount of time to allow any short-lived radioisotopes to decay, before being transferred to the laboratory for treatment and analysis. The capture matrix was filtered and separated from the solid in order to separate any recoiled radiolanthanide. The solid residue and capture matrix were collected for analysis of the activity of the radiolanthanide. The pre-irradiation solubility test washes along with standards were also prepared for analysis. The samples were analyzed for radiolanthanide activity using a High Purity Germanium detector (HPGe) at the representative gamma energy of the radiolanthanide of interest.
All the samples for a particular compound were irradiated as a group, along with standards for calibration purposes and direct comparisons of activities. In samples that were not treated post irradiation by separation (e.g. as in the case of target and capture matrix) the activity of the radiolanthanide is directly related to the total concentration of the corresponding lanthanide. The count rate measured in each sample was normalized to a single point in time to account for decay during measurements. Both pre-irradiation washes were collected to give an indication of the solubility of the lanthanide complex in the capture matrix (H2O). The second wash was obtained to determine if the lanthanide activity detected in the first wash was actually due to solubility of the lanthanide containing target or due to factors such as impurities or the presence of uncomplexed lanthanide that came off in the first wash. […] Radiolanthanides that recoiled out but reformed bonds with the solid compound would appear as retained as well. […] Activity in the capture matrix may also reflect dissolution of the target matrix rather than recoil.

Row | Substance | % Activity in wash 1 [%] | % Activity in wash 2 [%]
1 | Holmium 8-hydroxyquinolinate [Compound 5] | 1.4 ± 0.9 | <1
2 | Samarium 8-hydroxyquinolinate [Compound 4] | <1 | <1
